This test deals with DLD-1 human colon xenografts. The experiment in a line: Efficacy in mice bearing DLD-1 human colon xenografts. Format: in vivo, female nude-Foxn1 mice. The following applies: DLD-1 human colon xenograft model. As for the experimental part:
Briefly, in order to perform tumor studies on mice, animals are inoculated subcutaneously with approximately 2×10^6 tumor cells which are then allowed to grow to sufficient size before being treated. This is done using the methods described previously in PCT publication WO03/028696 (supra).
Either free irinotecan or Cetuximab® was administered to female nude-Foxn1 mice at doses of 100 mg/kg or 1 mg/mouse, respectively on a multiple dosing schedule as shown by the arrows in FIG. 1A. Cetuximab® was dosed on a Q3Dx7 schedule and irinotecan a Q7Dx3 schedule.
Either liposomal irinotecan or free Cetuximab® was administered to female nude-Foxn1 mice at doses of 100 mg/kg or 1 mg/mouse, respectively on a multiple dosing schedule as shown by the arrows in FIG. 1B. Cetuximab® was dosed on a Q3Dx7 schedule and liposomal irinotecan on a Q7Dx3 schedule.

As to “Cetuximab®: epidermal growth factor receptor inhibitor”, the “effect of Cetuximab on activity of irinotecan and liposomal irinotecan (example title)” value is listed as “Enhances the Activity of Irinotecan as well as Liposomal Irinotecan”.

Source of the values: patent US20180271787A1, “COMBINATION METHODS AND COMPOSITIONS” (CELATOR PHARMACEUTICALS, INC., priority 2008, published 2018).
